# Values of other authors, collected in patent US20120082623A1, “SHH Regulation and Methods Thereof” (priority 2009, published 2012).
# Tested on: ALS patients
# Conditions: cited from earlier work
compound,measurement,value
Nc1nc2ccc(OC(F)(F)F)cc2s1 [Riluzole],survival,prolongs survival in ALS patients for several months
